Where “and” joins values, the source holds several entries; their conditions need not be identical. Identical values can stand only once. Like-named read-outs stand apart in the source and are kept apart here.
T1: γ subunit (DnaX) of the E. coli clamp loader (E. coli, UniProt P06710-2 1-431)
T1 sequence (looked up): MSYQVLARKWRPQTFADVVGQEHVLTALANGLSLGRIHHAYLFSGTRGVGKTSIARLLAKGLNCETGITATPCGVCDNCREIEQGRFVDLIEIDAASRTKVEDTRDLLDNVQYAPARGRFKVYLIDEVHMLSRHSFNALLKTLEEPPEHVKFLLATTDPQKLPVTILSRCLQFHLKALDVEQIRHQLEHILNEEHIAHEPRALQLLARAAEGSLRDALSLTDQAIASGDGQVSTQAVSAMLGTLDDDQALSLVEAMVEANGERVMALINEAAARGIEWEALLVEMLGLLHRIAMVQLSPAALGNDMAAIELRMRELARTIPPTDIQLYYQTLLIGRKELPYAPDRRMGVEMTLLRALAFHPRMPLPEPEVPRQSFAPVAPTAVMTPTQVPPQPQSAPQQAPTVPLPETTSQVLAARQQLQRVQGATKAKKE

T2: δ subunit of the E. coli clamp loader (E. coli, UniProt P28630 1-343)
T2 sequence (looked up): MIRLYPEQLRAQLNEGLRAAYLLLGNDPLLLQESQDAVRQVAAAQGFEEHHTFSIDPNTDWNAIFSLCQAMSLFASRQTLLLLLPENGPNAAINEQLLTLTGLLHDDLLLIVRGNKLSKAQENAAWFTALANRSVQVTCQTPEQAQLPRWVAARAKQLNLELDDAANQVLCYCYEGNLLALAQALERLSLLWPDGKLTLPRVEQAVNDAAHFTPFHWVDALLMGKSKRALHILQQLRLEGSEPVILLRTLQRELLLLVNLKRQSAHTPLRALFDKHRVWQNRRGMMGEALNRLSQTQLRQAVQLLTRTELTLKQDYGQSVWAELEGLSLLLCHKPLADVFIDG

B1: τ subunit (DnaX) of the E. coli clamp loader (natural protein, UniProt P06710 1-643, looked up)
chain: MSYQVLARKWRPQTFADVVGQEHVLTALANGLSLGRIHHAYLFSGTRGVGKTSIARLLAKGLNCETGITATPCGVCDNCREIEQGRFVDLIEIDAASRTKVEDTRDLLDNVQYAPARGRFKVYLIDEVHMLSRHSFNALLKTLEEPPEHVKFLLATTDPQKLPVTILSRCLQFHLKALDVEQIRHQLEHILNEEHIAHEPRALQLLARAAEGSLRDALSLTDQAIASGDGQVSTQAVSAMLGTLDDDQALSLVEAMVEANGERVMALINEAAARGIEWEALLVEMLGLLHRIAMVQLSPAALGNDMAAIELRMRELARTIPPTDIQLYYQTLLIGRKELPYAPDRRMGVEMTLLRALAFHPRMPLPEPEVPRQSFAPVAPTAVMTPTQVPPQPQSAPQQAPTVPLPETTSQVLAARQQLQRVQGATKAKKSEPAAATRARPVNNAALERLASVTDRVQARPVPSALEKAPAKKEAYRWKATTPVMQQKEVVATPKALKKALEHEKTPELAAKLAAEAIERDPWAAQVSQLSLPKLVEQVALNAWKEESDNAVCLHLRSSQRHLNNRGAQQKLAEALSMLKGSTVELTIVEDDNPAVRTPLEWRQAIYEEKLAQARESIIADNNIQTLRRFFDAELDEESIRPI
B2: ψχ heterodimer of the E. coli clamp loader (complex)
chain 1: MTSRRDWQLQQLGITQWSLRRPGALQGEIAIAIPAHVRLVMVANDLPALTDPLVSDVLRALTVSPDQVLQLTPEKIAMLPQGSHCNSWRLGTDEPLSLEGAQVASPALTDLRANPTARAALWQQICTYEHDFFPRND
chain 2: MKNATFYLLDNDTTVDGLSAVEQLVCEIAAERWRSGKRVLIACEDEKQAYRLDEALWARPAESFVPHNLAGEGPRGGAPVEIAWPQKRSSSRRDILISLRTSFADFATAFTEVVDFVPYEDSLKQLARERYKAYRVAGFNLNTATWK
B3: δ′ subunit of the E. coli clamp loader (natural protein, UniProt P28631 1-334, looked up)
chain: MRWYPWLRPDFEKLVASYQAGRGHHALLIQALPGMGDDALIYALSRYLLCQQPQGHKSCGHCRGCQLMQAGTHPDYYTLAPEKGKNTLGVDAVREVTEKLNEHARLGGAKVVWVTDAALLTDAAANALLKTLEEPPAETWFFLATREPERLLATLRSRCRLHYLAPPPEQYAVTWLSREVTMSQDALLAALRLSAGSPGAALALFQGDNWQARETLCQALAYSVPSGDWYSLLAALNHEQAPARLHWLATLLMDALKRHHGAAQVTNVDVPGLVAELANHLSPSRLQAILGDVCHIREQLMSVTGINRELLITDLLLRIEHYLQPGVVLPVPHL

Key:
Experiment in all cases: native MS
native MS [1] = biological target: the molecule itself
native MS [2] = biological target: the molecule itself; remark: listed apart in the source
[3] = biological target: B1
[4] = biological target: T1, γ subunit (DnaX) of the E. coli clamp …
[5] = biological target: T2, δ subunit of the E. coli clamp loader

Binder: B1
stoichiometry N (native MS [1]): 3
stoichiometry N (native MS [2]): 4 and 2

Binder: B2
binding result [3]: binds
binding result [4]: binds

Binder: B3
binding result [5]: binds

From publication PMC4869865 (Structure (London, England : 1993), 2010)
